Article PMC7072329, “Discovery of Kynurenines Containing Oligopeptides as Potent Opioid Receptor Agonists” (Biomolecules, 2020)

Sequences of proteins named here, by UniProt entry; tags and fusion partners are left off.
UniProt P33535, whole entry: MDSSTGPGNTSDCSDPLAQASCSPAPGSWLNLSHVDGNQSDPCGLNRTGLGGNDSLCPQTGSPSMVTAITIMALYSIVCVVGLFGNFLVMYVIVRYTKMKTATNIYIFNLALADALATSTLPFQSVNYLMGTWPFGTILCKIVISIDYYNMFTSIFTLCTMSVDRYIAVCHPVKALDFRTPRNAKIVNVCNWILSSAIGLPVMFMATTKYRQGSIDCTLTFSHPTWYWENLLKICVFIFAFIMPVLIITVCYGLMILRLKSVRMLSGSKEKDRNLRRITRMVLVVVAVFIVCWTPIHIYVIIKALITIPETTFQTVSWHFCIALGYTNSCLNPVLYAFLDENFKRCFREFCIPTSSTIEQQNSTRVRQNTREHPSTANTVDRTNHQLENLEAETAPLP

Biological target: T1, μ-opioid receptor (Rattus norvegicus, UniProt P33535)
T1 construct: aliquots of frozen rat and guinea pig brain membrane homogenates were thawed and suspended in 50 mM Tris-HCl buffer; from tissue; host or cells: Wistar rat brain membrane homogenate
Type: binding
Conditions: MOR; rat brain membrane; from IC50 by Cheng–Prusoff; read-out: Ki + S.E.M., displacement of [3H]DAMGO

For C[C@@H](NC(=O)[C@@H](N)Cc1ccc(O)cc1)C(=O)NCC(=O)N(C)[C@@H](Cc1ccccc1)C(=O)NCCO [DAMGO, Tyr-D-Ala-Gly-(NMe)Phe-Gly-ol, reference compound], the Ki was 0.9 ± 0.28 nM.
